The source of these data is patent publication US5314998A, “Organic solvent-soluble metal-azo and metal-azomethine dyes” (Minnesota Mining and Manufacturing Company, priority 1992, dated 1994).

Data set [1] in a line: Solubility in heptane (absorbance at maximum of saturated solution), chromium metal-azo complexes. The data set is classed as physicochemical. The conditions noted are these: room temperature (22° C.). The protocol:
The samples were prepared by shaking the dye in heptane for several hours, allowing the samples to sit overnight, and filtering through a plug of glass wool to remove particulates.

Data set [2] in a line: Solubility in heptane (absorbance at maximum), four-coordinate platinum metal-azo complexes. The conditions noted are these: ambient temperature. In kind it is physicochemical. The text has this:
^b result obtained by measuring in a 1 cm cell and dividing result by
^c estimate based on fitting the spectrum in the 510-550 nm region.

As for “[[2,2-azobis[phenolato]](-2)-N,O,O](2,4-pentanedionato-O,O)(4-(5-nonyl)pyridine)chromium [Compound 29]”, the “Absorbance at Maximum in Heptane/1 mm Cell” value (from here on “Absorbance at Maximum”) in data set [1] was determined as 2.69.
In the case of “[[2,2-azobis[phenolato]](-2)-N,O,O](4-(5-nonyl)pyridine)platinum [Compound 19]”, the “Absorbance at Maximum” value in data set [2] (estimate based on fitting the spectrum in the 510-550 nm region) is on record as 8.17.
“[[2,2-azobis[phenolato]](-2)-N,O,O](ethyl nicotinate)platinum [Compound 18]”: in data set [2] (measured in a 1 cm cell and result divided by 10), the “Absorbance at Maximum” value worked out at 0.08.
